This note sets out measurements from US7517882B2, “Protein kinase inhibitors” (Polaris Group, priority 2006, dated 2009).

Sequences of proteins named here, by UniProt entry; tags and fusion partners are left off.
UniProt P68400, whole entry: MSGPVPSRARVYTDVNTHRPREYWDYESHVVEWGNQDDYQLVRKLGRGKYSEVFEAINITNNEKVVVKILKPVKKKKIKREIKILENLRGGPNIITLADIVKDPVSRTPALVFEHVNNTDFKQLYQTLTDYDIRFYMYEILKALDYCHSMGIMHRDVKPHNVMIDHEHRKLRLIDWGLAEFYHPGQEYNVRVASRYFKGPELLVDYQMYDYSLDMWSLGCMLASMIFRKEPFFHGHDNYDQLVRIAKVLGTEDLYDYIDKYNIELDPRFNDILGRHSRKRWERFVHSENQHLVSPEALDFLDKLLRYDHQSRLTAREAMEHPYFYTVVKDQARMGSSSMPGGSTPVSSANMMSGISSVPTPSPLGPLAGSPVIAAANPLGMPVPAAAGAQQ

Where only a bound is given, the exact number is not on record here.

As a reminder, the Ki is the dissociation constant of the complex between target and ligand, obtained from inhibition or displacement. Read a low Ki as a stronger hold on the target.

In the assay the target is T1, human CK2 (Homo sapiens, UniProt P68400).
T1 construct: Full Length His-tagged Human CK2 was cloned, expressed, and purified; His tag; made in house; host or cells: E. coli
Description: CK2 protein kinase inhibition assay (spectrophotometric PK/LDH coupled assay). Format: biochemical. The following applies: Table 1, triazine-based compounds; full length His-tagged human CK2, 50 μM ATP, competitive inhibition fit with Km 10 μM. The procedure: CK2 protein kinase activity was measured through use of a spectrophotometric PK/LDH coupled assay to detect ATP turnover. Full Length His-tagged Human CK2 was cloned, expressed, and purified from an E. coli expression system. The peptide substrate for CK2 phosphorylation was […] (Genscript Corporation, Piscataway, N.J., USA). […] Prior to the addition of ATP to initiate the phosphorylation reaction, CK2 enzyme was pre-incubated with inhibitors and other assay components for 5 min. Progress of the reaction was continuously monitored by the change in UV/Vis absorbance at 340 nm. […] In the case of very potent binding, tight-binding methods were employed to determine Ki.

The compound `O=C1CCCCc2cnn3c(NC4CC4)nc(nc23)Nc2cccc(c2)N1` [Compound 11a, (11,14)3,5N-{cyclopropyl-pyrazolo[1,5-a][1,3,5]triazin-4-ylamino}-(2N,4N)-phenyl-1,5-diaza-cyclotetradeca-8-one] yielded a Ki of less than 100 nM.
